Chains of the proteins cited; added tags and fusions are not shown. Residues count along the entry.
UniProt P26358, 504-1616 limits assumed: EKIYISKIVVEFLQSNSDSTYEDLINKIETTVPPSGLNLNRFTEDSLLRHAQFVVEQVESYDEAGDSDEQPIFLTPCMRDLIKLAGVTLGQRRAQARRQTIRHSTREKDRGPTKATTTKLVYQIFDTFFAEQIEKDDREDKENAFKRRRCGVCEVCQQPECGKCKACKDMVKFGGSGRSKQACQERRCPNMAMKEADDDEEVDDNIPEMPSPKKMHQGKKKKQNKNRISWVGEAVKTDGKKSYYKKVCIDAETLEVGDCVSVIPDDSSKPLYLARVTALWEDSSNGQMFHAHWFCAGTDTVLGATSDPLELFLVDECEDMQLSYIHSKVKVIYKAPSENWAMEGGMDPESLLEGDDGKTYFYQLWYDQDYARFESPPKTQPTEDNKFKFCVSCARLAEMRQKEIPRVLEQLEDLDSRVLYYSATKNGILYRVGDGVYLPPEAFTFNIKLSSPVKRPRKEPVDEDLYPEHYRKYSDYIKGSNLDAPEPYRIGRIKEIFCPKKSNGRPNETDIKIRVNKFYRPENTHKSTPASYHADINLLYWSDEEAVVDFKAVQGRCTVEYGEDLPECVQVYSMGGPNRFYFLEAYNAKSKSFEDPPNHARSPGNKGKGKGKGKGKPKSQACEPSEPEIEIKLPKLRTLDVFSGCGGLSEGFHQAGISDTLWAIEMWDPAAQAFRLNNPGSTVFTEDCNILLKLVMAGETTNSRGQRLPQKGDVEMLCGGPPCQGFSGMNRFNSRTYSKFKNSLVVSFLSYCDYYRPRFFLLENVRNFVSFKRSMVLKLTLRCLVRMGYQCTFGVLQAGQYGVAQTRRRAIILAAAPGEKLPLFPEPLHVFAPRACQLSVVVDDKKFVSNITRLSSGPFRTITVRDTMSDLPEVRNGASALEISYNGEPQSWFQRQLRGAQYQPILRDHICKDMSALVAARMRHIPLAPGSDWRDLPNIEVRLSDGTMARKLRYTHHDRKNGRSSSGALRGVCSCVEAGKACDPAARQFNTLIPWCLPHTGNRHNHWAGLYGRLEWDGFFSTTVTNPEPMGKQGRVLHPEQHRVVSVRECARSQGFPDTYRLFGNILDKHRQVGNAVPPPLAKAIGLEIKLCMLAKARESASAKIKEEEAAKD

Only a part is listed here, and it is no random draw. Some tests of the compounds listed are not included; inactive here does not mean inactive elsewhere. Calls of active or inactive are those of the source. Cut-off read from the data, not from the text of the source: active = inhibition above about 50%; inactive = the rest.
What follows are compounds tested against DNA (cytosine-5)-methyltransferase 1 (Homo sapiens) (UniProt P26358) (assay: human DNMT1 methyltransferase inhibitors, primary screen, biochemical, molecular beacon, fluorescence, HinP1I cleavage, uHTS (AID 588458)). Details: at 10 µM, hits give high values.
For `COc1cc(SC)ccc1C(=O)NCC1(N(C)C)CCCCC1`, the inhibition (reported as % activation of signal) was inactive: 1.5%.
With `CCN(CC)CC(C)C(C)OC(=O)C(O)(c1ccccc1)c1ccccc1` (stereo unspecified) the inhibition (reported as % activation of signal) was inactive: -0.84%.
In the case of `CC(C)N1C(=O)CC2(CCN(CCOC(=O)C(O)(c3ccccc3)c3ccccc3)CC2)C1=O`, the inhibition (reported as % activation of signal) is reported as inactive: -1.68%.
For `Cc1ccc(C(=O)NCC2(N3CCCCC3)CCCCC2)cc1`, the inhibition (reported as % activation of signal) was inactive: -2.46%.
With `O=C(NCC1(N2CCCCC2)CCCCC1)c1cc([N+](=O)[O-])ccc1Cl` the inhibition (reported as % activation of signal) was inactive: 9.01%.
`CN1[C@@H]2CC[C@H]1CC(OC(=O)C(O)(c1ccccc1)c1ccccc1)C2` (stereo partly specified) was tested, and the inhibition (reported as % activation of signal) was inactive: 0.94%.
`O=C(NCC1(N2CCCCC2)CCCCC1)c1cc(F)c(F)cc1Cl` was tested, and the inhibition (reported as % activation of signal) was inactive: -0.58%.
With `C=CCN1CCN(CCOC(=O)C(O)(c2ccccc2)c2ccccc2)CC1` the inhibition (reported as % activation of signal) was inactive: 0.87%.
For `COc1ccc(C(=O)NCC2(N(C)C)CCCCC2)cc1`, the inhibition (reported as % activation of signal) was inactive: 0.25%.
With `O=C(NCC1(N2CCCCC2)CCCCC1)c1cccc(Br)c1` the inhibition (reported as % activation of signal) was inactive: 1.02%.
`Cc1cc(C(=O)NCC2(N3CCCCC3)CCCCC2)ccc1[N+](=O)[O-]` was tested, and the inhibition (reported as % activation of signal) was inactive: -1.04%.
`CCN1CCCC(OC(=O)C2(O)c3ccccc3C=Cc3ccccc32)C1` (stereo unspecified) was tested, and the inhibition (reported as % activation of signal) was inactive: 0.04%.
In the case of `CN(C)C1CCCC1OC(=O)C(O)(c1ccccc1)c1ccccc1` (stereo unspecified), the inhibition (reported as % activation of signal) is reported as inactive: 2.13%.
For `CN(C)c1ccc(C(=O)NCC2(N(C)C)CCCCC2)cc1`, the inhibition (reported as % activation of signal) was inactive: 0.19%.
In the case of `Cc1ccccc1C(=O)NCC1(N2CCCCC2)CCCCC1`, the inhibition (reported as % activation of signal) is reported as inactive: 2.61%.
`COc1ccc(Cl)cc1C(=O)NCC1(N(C)C)CCCCC1` was tested, and the inhibition (reported as % activation of signal) was inactive: -0.38%.
`COc1cccc(C(=O)NCC2(N3CCCCC3)CCCCC2)c1` was tested, and the inhibition (reported as % activation of signal) was inactive: 0.69%.
`O=C(NCC1(N2CCCCC2)CCCCC1)c1cccc(Cl)c1` was tested, and the inhibition (reported as % activation of signal) was inactive: 4.97%.
For `CN(C)C1(CNC(=O)c2ccc(Br)cc2)CCCCC1`, the inhibition (reported as % activation of signal) was inactive: -1.66%.
In the case of `COc1cc(C(=O)NCC2(N(C)C)CCCCC2)c([N+](=O)[O-])cc1OC`, the inhibition (reported as % activation of signal) is reported as inactive: -0.03%.
`C=C(C)C#CC(O)(C(=O)OC1CCN(C)CC1)c1ccccc1` (stereo unspecified) was tested, and the inhibition (reported as % activation of signal) was inactive: 1.69%.
For `COc1ccc(Br)c(C(=O)NCC2(N3CCCCC3)CCCCC2)c1`, the inhibition (reported as % activation of signal) was inactive: -2.99%.
In the case of `O=C(OCCN1CCCC1)C(O)(c1ccccc1)c1ccccc1`, the inhibition (reported as % activation of signal) is reported as inactive: 2.4%.
For `CC(C)Oc1ccc(C(=O)NCC2(N(C)C)CCCCC2)cc1`, the inhibition (reported as % activation of signal) was inactive: 2.15%.
For `CN(C)c1cccc(C(=O)NCC2(N(C)C)CCCCC2)c1`, the inhibition (reported as % activation of signal) was inactive: -0.59%.
`O=C(OC1CN2CCC1CC2)C(CO)(c1ccccc1)c1ccccc1` (stereo unspecified) was tested, and the inhibition (reported as % activation of signal) was inactive: 0.19%.

— PubChem BioAssay AID588458 (Sanford-Burnham Center for Chemical Genomics, 2011)
